Amino acid sequences for entries named in this document (tags omitted). A change or cut given only in a name is not applied to a line headed by its entry. Residues count along the entry.
UniProt P25106: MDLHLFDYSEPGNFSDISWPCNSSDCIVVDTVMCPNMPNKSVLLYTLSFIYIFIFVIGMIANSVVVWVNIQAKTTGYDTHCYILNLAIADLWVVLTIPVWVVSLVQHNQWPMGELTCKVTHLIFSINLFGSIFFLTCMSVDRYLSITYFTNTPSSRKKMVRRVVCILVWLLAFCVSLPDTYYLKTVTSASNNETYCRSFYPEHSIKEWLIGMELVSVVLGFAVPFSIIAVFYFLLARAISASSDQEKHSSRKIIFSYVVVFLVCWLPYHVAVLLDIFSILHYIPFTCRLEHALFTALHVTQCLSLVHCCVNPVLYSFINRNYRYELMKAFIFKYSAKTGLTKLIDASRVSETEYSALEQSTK
UniProt P61073, whole entry: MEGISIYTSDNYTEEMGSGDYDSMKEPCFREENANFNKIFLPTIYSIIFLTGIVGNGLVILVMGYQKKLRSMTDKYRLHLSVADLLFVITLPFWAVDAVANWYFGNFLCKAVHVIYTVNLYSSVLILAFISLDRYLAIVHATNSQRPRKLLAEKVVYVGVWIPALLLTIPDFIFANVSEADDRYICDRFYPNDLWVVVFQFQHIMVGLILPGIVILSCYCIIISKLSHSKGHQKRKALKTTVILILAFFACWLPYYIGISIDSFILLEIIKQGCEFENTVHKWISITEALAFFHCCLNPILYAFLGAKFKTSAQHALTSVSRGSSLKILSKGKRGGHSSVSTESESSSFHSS
UniProt P48061, 22-89: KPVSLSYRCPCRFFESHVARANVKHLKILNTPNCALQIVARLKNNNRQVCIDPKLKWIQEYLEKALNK

According to article PMC6152952:

How the values were obtained:
ACKR3-TANGO = ACKR3-TANGO (UniProt P25106)
CXCR4-TANGO = CXCR4-TANGO (UniProt P61073)
HA-CXCR4 = HA-CXCR4 (UniProt P61073)

- PRESTO-Tango β-arrestin recruitment assay for ACKR3, luminescence as fold of vehicle-treated cells, 200 nM CXCL12 (fold of vehicle-treated cells) (ACKR3-TANGO): 48
- PRESTO-Tango β-arrestin recruitment assay for CXCR4, luminescence as fold of vehicle-treated cells, 200 nM CXCL12 (fold of vehicle-treated cells) (CXCR4-TANGO): 1.8
- ERK1/2 phosphorylation (pERK1/2/ERK1/2 by Western blot) in HEK293 cells transfected with CXCR4, 100 nM CXCL12, time series (HA-CXCR4): 4 fold
Substance: CXCL12 (stromal cell-derived factor 1α) (from UniProt P48061-2 22-89) (ligand)
